Measurements from patent US7217411B2, “CeSERT genes, proteins, and modulatory compounds” (Massachusetts Institute of Technology, priority 2000, dated 2007).

How the values were obtained:
MOD-5 CeSERT [1] = molecular target: T1, MOD-5 CeSERT (Caenorhabditis elegans, UniProt Q963F3); experiment: cell-based
T1 sequence (Q963F3 1-671): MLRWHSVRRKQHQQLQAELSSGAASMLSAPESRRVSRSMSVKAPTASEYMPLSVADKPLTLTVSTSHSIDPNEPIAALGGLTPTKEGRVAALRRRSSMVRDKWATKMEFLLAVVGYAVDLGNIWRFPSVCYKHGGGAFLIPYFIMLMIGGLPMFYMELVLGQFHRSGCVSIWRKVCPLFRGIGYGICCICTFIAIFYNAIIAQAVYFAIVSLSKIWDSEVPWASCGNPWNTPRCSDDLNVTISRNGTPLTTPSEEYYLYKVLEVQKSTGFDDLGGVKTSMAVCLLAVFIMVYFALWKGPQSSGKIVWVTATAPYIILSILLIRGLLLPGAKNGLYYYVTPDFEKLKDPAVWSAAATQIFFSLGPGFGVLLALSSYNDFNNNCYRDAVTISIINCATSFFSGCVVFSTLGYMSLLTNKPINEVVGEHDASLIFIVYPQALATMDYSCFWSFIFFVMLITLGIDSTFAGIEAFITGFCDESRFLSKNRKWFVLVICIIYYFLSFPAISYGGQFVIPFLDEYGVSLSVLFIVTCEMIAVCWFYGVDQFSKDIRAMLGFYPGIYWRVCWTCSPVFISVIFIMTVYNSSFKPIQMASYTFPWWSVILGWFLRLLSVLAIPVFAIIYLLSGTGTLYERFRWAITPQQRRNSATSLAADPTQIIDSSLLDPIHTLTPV

C. elegans NSMs = experiment: serotonin uptake in vivo, anti-serotonin staining of NSMs; conditions: tph-1, then 2 mM 5-HT + fluoxetine 2 hours
C. elegans = experiment: effects of high concentrations of fluoxetine on C. elegans (literature)
MOD-5 CeSERT [2] = molecular target: T1, MOD-5 CeSERT; experiment: MOD-5-mediated [^3H]serotonin uptake in HEK293 cell lines stably expressing MOD-5; conditions: 50 μM radiolabeled neurotransmitter vs 1 μM [^3H]serotonin

CN(C)CCCC1(c2ccc(F)cc2)OCc2cc(C#N)ccc21 (stereo not drawn) [citalopram]
Ki (MOD-5 CeSERT [1]): 0.994 ± 0.298 µM

CNCCCN1c2ccccc2CCc2ccccc21 [desipramine]
Ki (MOD-5 CeSERT [1]): 0.334 ± 0.115 µM

CNCCC(Oc1ccc(C(F)(F)F)cc1)c1ccccc1 (stereo not drawn) [fluoxetine]
% Serotonin-positive NSMs (C. elegans NSMs; fluoxetine 0.22 mM 1 hr): 20%
% Serotonin-positive NSMs (C. elegans NSMs; fluoxetine 0.29 mM 1 hr): 7%
% Serotonin-positive NSMs (C. elegans NSMs; fluoxetine 0.44 mM 1 hr): 0%
concentration for paralysis, nose contraction, egg-laying relative to that blocking serotonin uptake in vivo and potentiating enhanced slowing (C. elegans): at least 2.5 fold
Ki (MOD-5 CeSERT [1]): 0.133 ± 0.09 µM

NCC(=O)O [glycine]
MOD-5-mediated uptake of radiolabeled neurotransmitter (MOD-5 CeSERT [2]): inefficient at translocating

Fc1ccc([C@@H]2CCNC[C@H]2COc2ccc3c(c2)OCO3)cc1 [paroxetine]
Ki (MOD-5 CeSERT [1]): 0.179 ± 0.064 µM
